Values quoted from earlier work, collected in patent US20030104079A1, “Skin tissue regeneration promoters comprising ginsenoside Rb1” (Japan Science and Technology Corporation, Japan, priority 2000, published 2003).

Tested on: permanent occlusion of the cortical branch of the middle cerebral artery
Details: intracerebroventricular administration; Wen et al. 1998; cited from earlier work

B1: interleukin 3 (IL-3): one of colony stimulating factors (protein, UniProt P08700 20-152, looked up)
Interleukin-3: APMTQTTPLKTSWVNCSNMIDEIITHLKQPPLPLLDFNNLNGEDQDILMENNLRRPNLEAFNRAVKSLQNASAIESILKNLLPCLPLATAAPTRHPIHIKDGDWNEFRRKLTFYLKTLENAQAQQTTLSLAIF
nerve cell protection and Bcl-xL expression: protected nerve cells and promoted expression of Bcl-xL
